These are literature values, as cited in US6855735B2, “Ketamine treatment of restless legs syndrome” (Temple University of the Commonwealth System of Higher …, priority 2002, dated 2005).

The conditions of the data set: metabolite of ketamine; cited from earlier work.

For 6-dihydro-norketamine, the renal excretion is on record as 90%.
